Laboratory results as given in patent publication US10940173B2, “Cannabis oil extracts and compositions” (priority 2015, dated 2021).

By UniProt entry, the sequences of proteins in these tests, tags left out.
UniProt P34972, whole entry: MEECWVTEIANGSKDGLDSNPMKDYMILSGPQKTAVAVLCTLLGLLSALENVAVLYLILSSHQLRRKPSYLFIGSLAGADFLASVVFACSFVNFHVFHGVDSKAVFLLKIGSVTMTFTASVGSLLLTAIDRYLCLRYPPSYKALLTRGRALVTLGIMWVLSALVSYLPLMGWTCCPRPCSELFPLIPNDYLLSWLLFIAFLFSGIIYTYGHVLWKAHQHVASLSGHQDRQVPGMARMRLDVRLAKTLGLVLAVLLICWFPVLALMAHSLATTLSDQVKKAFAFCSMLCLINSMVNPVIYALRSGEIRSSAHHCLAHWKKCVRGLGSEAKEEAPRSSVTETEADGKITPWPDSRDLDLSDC

Columns and labels:
[1] = molecular target: T1, CNR2 (also known as CB2) (Homo sapiens, UniProt P34972); assay: cAMP competitive inhibition immunoassay (HitHunter), CNR2; type: cell-based
[2] = molecular target: T1, CNR2 (also known as CB2); assay: β-arrestin GPCR assay (PathHunter), CNR2; type: cell-based; design: β-galactosidase enzyme fragment (complementation partner)

Structure (SMILES): C=C(C)[C@@H]1CCC(C)=C[C@H]1c1c(O)cc(CCCCC)cc1O [CBD, cannabidiol]
- EC50 [1]: > 16.7 µM
- EC50 [2]: > 16.7 µM
